Patent US12023331B2 (priority 2018, dated 2024)

Experiments:
[1] = biological target: NOP (Nociceptin Receptor) (Homo sapiens (Human), UniProt P41146); experiment: Receptor binding, NOP
Delta opioid = Delta opioid (Homo sapiens (Human), UniProt P41143); experiment: Receptor binding, Delta opioid

In the case of O=C1CN2c3c(cccc3[C@@H]3CN(CCCOc4ccc(F)cc4)CC[C@@H]32)N1 [Example 1, (6bR,10aS)-8-(3-(4-fluorophenoxy)propyl)-6b,7,8,9,10,10a-hexahydro-1H-pyrido[3′,4′:4,5]pyrrolo[1,2,3-de]quinoxalin-2(3H)-one], the “Ki (nM) or maximum inhibition, NOP (Nociceptin Receptor)” value [1] is reported as “No inhibition” and the “Ki (nM) or maximum inhibition, Delta opioid” value (Delta opioid) is reported as “No inhibition”.
